The values below come from article doi:10.1101/2022.04.15.488344v1 (biorxiv, 2022).

Sequences of proteins named here, by UniProt entry; tags and fusion partners are left off.
UniProt P03372, whole entry: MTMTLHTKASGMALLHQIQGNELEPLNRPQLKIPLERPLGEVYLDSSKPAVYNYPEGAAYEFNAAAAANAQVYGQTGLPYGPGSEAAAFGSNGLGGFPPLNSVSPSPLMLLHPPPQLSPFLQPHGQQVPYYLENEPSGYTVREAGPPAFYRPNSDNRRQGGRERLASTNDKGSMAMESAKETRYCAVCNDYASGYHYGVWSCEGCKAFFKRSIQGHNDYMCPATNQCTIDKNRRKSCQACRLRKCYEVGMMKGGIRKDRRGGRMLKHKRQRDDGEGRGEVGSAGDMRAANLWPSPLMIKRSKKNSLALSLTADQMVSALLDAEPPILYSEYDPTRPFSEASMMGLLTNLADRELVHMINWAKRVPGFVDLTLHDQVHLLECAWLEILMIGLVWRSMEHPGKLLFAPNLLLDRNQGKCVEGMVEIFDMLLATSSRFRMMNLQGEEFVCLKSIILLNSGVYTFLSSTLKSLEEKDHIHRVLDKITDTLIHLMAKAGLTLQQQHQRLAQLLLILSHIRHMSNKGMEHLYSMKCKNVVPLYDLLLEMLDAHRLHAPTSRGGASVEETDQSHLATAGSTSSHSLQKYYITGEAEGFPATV

The structures appear in SMILES notation. Read-outs that look alike come from different tables or passages of the source.

The test concerns the target ERα-VP16 (VP16-ERα) (Homo sapiens, UniProt P03372). The class given is cell-based. Particulars: […] h, αII peptide recruitment.

Turning to `CC(C)c1csc2nc(Cl)nc(NCc3ccc(O)cc3)c12` [2c, 4-(((2-chloro-5-isopropylthieno[2,3-d]pyrimidin-4-yl)amino)methyl)phenol], the response was half-maximal at 6.2 µM (EC50).
Take `Oc1cccc(CNc2nc(Cl)nc3scc(-c4ccccc4)c23)c1` [5d, 3-(((2-chloro-5-phenylthieno[2,3-d]pyrimidin-4-yl)amino)methyl)phenol]: a half-maximal response (EC50) required 7.79 µM. This EC50 and that of the molecule before are within 1.5-fold of each other.
`Cc1nc(NCc2ccc(O)cc2)c2c(CC(C)C)csc2n1` [compound 1, thieno[2,3-d]pyrimidine 1] returned an EC50 (commercial library sample) of 0.18 µM. This counts as sub-micromolar.

As a reminder, the EC50 is the concentration needed to bring the measured effect to its halfway point. A higher EC50 goes with lower potency in that assay.
